# Measured affinities in a library of Ab-14 light chain variants

Source: Engelhart et al. 2022 (doi:10.1038/s41597-022-01779-4), MIT Lincoln Laboratory and A-Alpha Bio; data file from the FLAb repository.

All variants were tested on one target, the spike HR2 peptide PDVDLGDISGINAS (SARS-CoV-2).

Parent scFv Ab-14: VH joined to VL by the linker GGGGSGGGGSGGGGS. Changes lie in the light chain CDRs alone.
VH: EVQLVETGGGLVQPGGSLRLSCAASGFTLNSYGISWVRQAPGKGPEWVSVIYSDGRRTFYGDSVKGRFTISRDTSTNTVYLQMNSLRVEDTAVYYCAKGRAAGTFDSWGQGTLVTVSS
VL: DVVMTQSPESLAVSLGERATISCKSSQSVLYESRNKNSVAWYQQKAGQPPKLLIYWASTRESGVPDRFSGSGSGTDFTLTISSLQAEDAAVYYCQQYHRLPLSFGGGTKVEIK

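The starting antibody came from a phage panning campaign against this peptide. The library (AAYL50) carries one to three amino acid substitutions per variant, with no insertions or deletions. The scFvs were displayed on barcoded MATa yeast, the peptide on MATalpha yeast. Pairs that bind mate more often; barcode pairs of the diploids are counted by sequencing. Scores were corrected for input abundance and mapped to Kd with protein pairs of known affinity run in the same pool. Mating was done three times.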

Variants are written as CDR1, CDR2 and CDR3 of the light chain (limits as in the source). Parent: KSSQSVLYESRNKNSVA, WASTRES, QQYHRLPLS. Numbers give log10(Kd / nM), so 0 is 1 nM and 3 is 1 µM. Smaller is tighter. Replicates are averaged; those with no signal do not enter the mean. A pair that was not seen in that replicate is written "n.d."; this usually means weak binding, but a binder can also be missed.

CDR-L1	CDR-L2	CDR-L3	replicates, log10 nM	mean, log10 nM	signal with controls
KSSQSVLVESQNKNSVA	WASTRES	QQYCRLPLS	1.61 1.45 1.69	1.58	4 of 9 (4.09)
KSSQSVLYESRNKNSVA	WASTRMS	QQYHYLPLS	1.26 1.35 1.24	1.28	0 of 9
KSSQSVLYESRNKNNVA	LASTRES	QQYHRLPLS	0.38 0.64 0.43	0.48	1 of 9 (4.35)
KSLQSVLYESRNKNSVA	WHSTNES	QQYHRLPLS	n.d. n.d. n.d.	n.d.	0 of 9
KSSQSVLYEMRNKNSVA	WASTRES	QAYHRPPLS	n.d. n.d. n.d.	n.d.	0 of 9
KLSQSVLYESRNKNSVF	WASTREH	QQYHRLPLS	n.d. n.d. n.d.	n.d.	5 of 9 (4.45)
KWSQSVLYESRNNNSVA	WASGRES	QQYHRLPLS	n.d. n.d. n.d.	n.d.	0 of 9
KSLQSVLYESRNKNSVA	WASTRES	QQYHRLPNS	5.01 3.41 n.d.	4.21	1 of 9 (3.28)
KSQQSVLYESRNKNSVA	WASQRES	QQYKRLPLS	1.23 1.38 1.44	1.35	1 of 9 (4.00)
KSSQSVLYESRNKNTDA	WASTRMS	QQYHRLPLS	n.d. n.d. n.d.	n.d.	1 of 9 (2.32)
KYSQSVLYESRWKNSVA	WASTRES	QQYHRLPLS	2.24 1.83 1.99	2.02	3 of 9 (4.49)
KSSQSVEYESRNKNSVA	WNSTRFS	QQYHRLPLS	4.67 3.01 n.d.	3.84	6 of 9 (4.55)
KSSQSVLYESRNKNYVA	VASTRES	QQYHRLPVS	n.d. 4.96 5.18	5.07	6 of 9 (4.78)
KSSQGVLYESRNKNSVA	WASTRES	QQYHFLSLS	n.d. n.d. n.d.	n.d.	0 of 9
KSSQSVLYESRNKNFVA	WASTWES	QQYHRLPQS	n.d. n.d. n.d.	n.d.	3 of 9 (4.37)
KSSQSFTYESRNKNSVA	HASTRES	QQYHRLPLS	-0.23 0.17 -0.12	-0.06	4 of 9 (4.92)
KSSQSVLYENRNKNSVA	WASKRES	QQYHRLPNS	3.41 n.d. 4.15	3.78	3 of 9 (3.79)
KSSQSVLYYSPNKNSVA	WASTRAS	QQYHRLPLS	n.d. n.d. n.d.	n.d.	0 of 9
KSLQSVLYESRFKNSVA	WASTREW	QQYHRLPLS	2.24 n.d. n.d.	2.24	0 of 9
KGSQSVLYESRNMNSVA	WASTRRS	QQYHRLPLS	1.19 1.57 1.49	1.42	1 of 9 (2.82)
KSSQSVLYWSRNKNSVA	WASTRAS	QQYHRLPLS	2.08 2.11 1.91	2.03	6 of 9 (3.97)
KSSASVLEESRNKNSVA	WASTRES	QQYHRLPVS	2.33 1.71 2.35	2.13	0 of 9
KSSQSVLYESRNVNSVA	WASTHES	QQYHNLPLS	4.43 n.d. n.d.	4.43	2 of 9 (5.15)
KSSQSVLYESRHKNYVA	WASTRES	QQYHRLPLS	3.85 5.38 n.d.	4.61	5 of 9 (3.91)
KSSQSVLTESRNKNSVA	WASTRMS	NQYHRLPLS	n.d. n.d. n.d.	n.d.	0 of 9
KSSQSVLYESRNKNSVA	WASTRES	RQYHRNPNS	n.d. n.d. n.d.	n.d.	0 of 9
KSSQSVLYESRNKNSVK	PASTRKS	QQYHRLPLS	n.d. n.d. n.d.	n.d.	0 of 9
KSSQSVLYESRDKNMVA	WASTRES	QQYHSLPLS	n.d. n.d. n.d.	n.d.	0 of 9
KSSQGVLYESRNDNSVA	WASTRES	QQVHRLPLS	1.79 1.93 2.35	2.02	6 of 9 (4.46)
KSSLSVLVESRNKNSVA	WASTRES	PQYHRLPLS	3.26 2.64 2.61	2.84	1 of 9 (3.15)
MSSQSVLYESRNKNSVF	WASTREE	QQYHRLPLS	n.d. 4.64 n.d.	4.64	3 of 9 (3.95)
KSSQSVLYESRNKESVA	WASWRES	QQYHRLPLT	n.d. n.d. n.d.	n.d.	0 of 9
SSSQSVLYEGRNCNSVA	WASTRES	QQYHRLPLS	0.27 0.35 1.01	0.54	0 of 9
KSSQGVLYESENKNSVA	WTSTRES	QQYHRLPLS	0.46 0.65 0.53	0.55	1 of 9 (4.79)
KSSQSVLYESRNKNSTA	WKSERES	QQYHRLPLS	n.d. 3.34 n.d.	3.34	0 of 9
MSSQSVLYESRNKNTVA	WWSTRES	QQYHRLPLS	n.d. 3.36 n.d.	3.36	1 of 9 (4.07)
KSSQSVLYESRNKNSVA	MASTRES	QKCHRLPLS	n.d. n.d. 4.42	4.42	2 of 9 (4.07)
KASQSVLYESRNKNSVA	WASTREE	MQYHRLPLS	n.d. n.d. n.d.	n.d.	0 of 9
KSSQSVLYESRNKNSVA	WKSTRPS	LQYHRLPLS	n.d. n.d. n.d.	n.d.	0 of 9

Three control strains display no target. For library AAYL50, 18% of the pairings with them gave a signal, with a median of 4.19 and one signal in twenty below 2.99, so weak values seen in few replicates may be background. The control count says in how many pairings with the empty strains this scFv gave a signal, with their mean in brackets. For reference, the parent read 0.65 as the reference entry and 1.68 as a member of this library.